The results in this text go back to US8003669B2, “Remedy for sleep disturbance” (Mitsubishi Tanabe Pharma Corporation, priority 2002, dated 2011).

By UniProt entry, the sequences of proteins in these tests, tags left out.
UniProt P35370, whole entry: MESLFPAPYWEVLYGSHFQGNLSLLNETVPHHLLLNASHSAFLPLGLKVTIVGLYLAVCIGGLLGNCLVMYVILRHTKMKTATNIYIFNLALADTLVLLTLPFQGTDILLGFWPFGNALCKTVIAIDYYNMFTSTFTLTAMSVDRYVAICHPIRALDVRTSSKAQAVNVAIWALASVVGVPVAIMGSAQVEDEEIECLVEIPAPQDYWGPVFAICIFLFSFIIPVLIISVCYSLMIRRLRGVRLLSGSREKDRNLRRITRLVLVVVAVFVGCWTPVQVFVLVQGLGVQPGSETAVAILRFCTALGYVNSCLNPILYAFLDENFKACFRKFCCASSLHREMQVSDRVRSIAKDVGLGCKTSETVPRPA
UniProt P41146, whole entry: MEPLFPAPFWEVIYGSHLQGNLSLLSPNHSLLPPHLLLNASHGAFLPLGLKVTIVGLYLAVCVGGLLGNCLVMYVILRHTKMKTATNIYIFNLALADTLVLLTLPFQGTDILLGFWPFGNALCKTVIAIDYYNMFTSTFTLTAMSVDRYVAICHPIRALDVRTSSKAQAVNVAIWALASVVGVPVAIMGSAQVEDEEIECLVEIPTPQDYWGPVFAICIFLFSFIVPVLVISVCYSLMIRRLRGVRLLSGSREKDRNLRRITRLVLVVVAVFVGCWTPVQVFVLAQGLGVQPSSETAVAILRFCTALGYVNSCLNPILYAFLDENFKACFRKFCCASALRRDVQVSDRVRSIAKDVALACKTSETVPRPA

SMILES strings stand for the structures. Some compounds may have been tested in ways that are not shown here.

The target of experiment [1] is ORL-1 receptor (Rattus norvegicus, UniProt P35370). The experiment in a line: ORL-1 receptor binding test ([3H]-nociceptin). The conditions noted are these: receptor prepared from cerebral cortex of rat.
The target in experiment [2] is human ORL-1 receptor (Homo sapiens, UniProt P41146). The experiment in a line: Agonist action: inhibition of forskolin-stimulated cAMP elevation in HEK293 cells. It is filed as cell-based. Conditions: HEK293 cells expressing human ORL-1 receptor, forskolin 1 μmol/L.
Experiment [3] concerns rats. The experiment can be described thus: Antagonistic action of the ORL-1 receptor antagonist on the phase advancement by the ORL-1 receptor agonist. Conditions: constant dark, agonist intraperitoneally at CT6, compound D orally 1 hour before. It is filed as in vivo, rat.
Experiment [4] concerns rats. The experiment can be described thus: Phase shift of circadian rhythm by the ORL-1 receptor agonist under a constant dark condition. The conditions noted are these: intraperitoneal, administered at CT6 or CT9.

For `O=c1[nH]c2ccccc2n1C1CCN([C@@H]2Cc3cccc4cccc2c34)CC1`, the IC50 in experiment [1] (read-out: IC50 value, inhibition of the binding of [3H]-nociceptin, 25° C., 20 minutes) was determined as 0.0728 µM. The Ki in experiment [1] (read-out: Ki value, inhibition of the binding of [3H]-nociceptin, Ki=IC50/(1+L/Kd)) worked out at 0.0084 µM. In addition, the “inhibition of cAMP production (ORL-1 receptor agonistic activity)” value in experiment [2] was “inhibited cAMP production depending on concentration”. Moreover, the “phase advancement by the agonist after pre-administration of test compound D” value in experiment [3] is listed as “antagonized by pre-administration of the test compound D”. The “phase shift of body-temperature circadian rhythm” value in experiment [4] is reported as “noticeable phase advancing action”.
